Measured values from patent publication US20130338190A1, “PHARMACEUTICALLY ACCEPTABLE SALT OF (E)-N-[4-[[3-CHLORO-4-(2-PYRIDYLMETHOXY)PHENYL]AMINO]-3-CYANO-7-ETHOXY-6-QUINOLYL]-3-[(2R)-1-METHYLPYRROLIDIN-2-YL]PROP-2-ENAMIDE, PREPARATION METHOD THEREOF, AND MEDICAL USE THEREOF” (priority 2011, published 2013).
Counter-ions that a name gives are not always drawn.

By UniProt entry, the sequences of proteins in these tests, tags left out. Residues count along the entry.
UniProt P00533, 25-1210: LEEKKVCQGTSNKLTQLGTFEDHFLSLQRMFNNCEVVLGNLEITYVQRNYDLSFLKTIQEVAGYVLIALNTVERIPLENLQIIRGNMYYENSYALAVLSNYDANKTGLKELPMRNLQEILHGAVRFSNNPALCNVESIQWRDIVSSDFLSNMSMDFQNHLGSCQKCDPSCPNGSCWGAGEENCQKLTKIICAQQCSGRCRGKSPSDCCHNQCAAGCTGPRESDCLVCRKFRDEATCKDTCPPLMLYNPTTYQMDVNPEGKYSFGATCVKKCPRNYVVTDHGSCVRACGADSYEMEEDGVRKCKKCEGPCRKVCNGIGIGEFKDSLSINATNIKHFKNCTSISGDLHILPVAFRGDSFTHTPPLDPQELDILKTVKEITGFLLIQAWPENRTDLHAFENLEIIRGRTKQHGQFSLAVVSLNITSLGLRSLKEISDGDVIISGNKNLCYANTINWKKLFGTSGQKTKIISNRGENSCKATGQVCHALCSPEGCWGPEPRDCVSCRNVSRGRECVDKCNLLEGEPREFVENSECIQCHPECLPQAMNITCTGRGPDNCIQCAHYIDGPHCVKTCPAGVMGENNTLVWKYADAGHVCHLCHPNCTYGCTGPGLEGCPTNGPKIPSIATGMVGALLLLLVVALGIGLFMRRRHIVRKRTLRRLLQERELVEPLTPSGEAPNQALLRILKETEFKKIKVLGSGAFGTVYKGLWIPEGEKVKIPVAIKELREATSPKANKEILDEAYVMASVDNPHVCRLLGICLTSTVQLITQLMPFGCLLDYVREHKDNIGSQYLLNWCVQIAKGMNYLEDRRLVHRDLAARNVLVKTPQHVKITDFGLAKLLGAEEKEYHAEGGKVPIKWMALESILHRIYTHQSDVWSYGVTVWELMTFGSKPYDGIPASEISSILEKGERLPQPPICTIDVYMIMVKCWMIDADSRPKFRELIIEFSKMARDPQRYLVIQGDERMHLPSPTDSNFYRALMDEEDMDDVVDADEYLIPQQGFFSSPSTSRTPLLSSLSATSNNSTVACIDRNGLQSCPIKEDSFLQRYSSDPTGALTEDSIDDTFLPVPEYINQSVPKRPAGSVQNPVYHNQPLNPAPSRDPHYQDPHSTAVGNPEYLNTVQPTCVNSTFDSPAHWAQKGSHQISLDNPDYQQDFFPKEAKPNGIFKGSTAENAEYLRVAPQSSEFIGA

Assays:
[1] = target: EGFR kinase (Homo sapiens, UniProt P00533); test: EGFR kinase activity assay (time-resolved fluorescence); assay type: biochemical; conditions: human-derived recombinant EGFR kinase, 20 μM ATP, 25° C., 45 minutes; read-out: IC50 (EGFR/BIO)
Description: The in vitro EGFR kinase activity was tested by the following assay.

[2] = test system: human epidermoid carcinoma A431 cells, which have high expression of EGFR; test: EGFR cell proliferation inhibition assay (SRB, 72 hours); assay type: cell-based
Description: The activity is represented by the IC50 value. The general procedures of the assay were as follows: the cancer cells A431 highly expressing EGFR were chosen and seeded in a 96-well cell culture plate at a suitable density (e.g., 5000 cells/mL medium). The cells were then incubated in a carbon dioxide incubator until they reached 85% confluence. Then, the cell culture medium was replaced by fresh medium containing the test compounds with serial dilutions (general 6 to 7 concentrations). The cells were put back in the incubator and cultured continuously for 72 hours. The activity of the test compounds for inhibiting the cell proliferation was determined by using a Sulforhodamine B (SRB) method. IC50 values were calculated by the rate of inhibition at various concentrations of the test compounds.

SMILES	IC50 [1] [nM]	IC50 [2] [nM]
CCOc1cc2ncc(C#N)c(Nc3ccc(OCc4ccccn4)c(Cl)c3)c2cc1NC(=O)/C=C/[C@H]1CCCN1C.O=C(O)/C=C\C(=O)O [Example 1, (E)-N-[4-[[3-chloro-4-(2-pyridylmethoxy)phenyl]amino]-3-cyano-7-ethoxy-6-quinolyl]-3-[(2R)-1-methylpyrrolidin-2-yl]prop-2-enamide maleate]	25	–
CCOc1cc2ncc(C#N)c(Nc3ccc(OCc4ccccn4)c(Cl)c3)c2cc1NC(=O)/C=C/[C@H]1CCCN1C [Example 1f, (E)-N-[4-[[3-chloro-4-(2-pyridylmethoxy)phenyl]amino]-3-cyano-7-ethoxy-6-quinolyl]-3-[(2R)-1-methylpyrrolidin-2-yl]prop-2-enamide]	–	45
CCOc1cc2ncc(C#N)c(Nc3ccc(OCc4ccccn4)c(Cl)c3)c2cc1NC(=O)/C=C/[C@H]1CCCN1C.O=C(O)/C=C\C(=O)O [Example 2, (E)-N-[4-[[3-chloro-4-(2-pyridylmethoxy)phenyl]amino]-3-cyano-7-ethoxy-6-quinolyl]-3-[(2R)-1-methylpyrrolidin-2-yl]prop-2-enamide dimaleate]	9	–
CCOc1cc2ncc(C#N)c(Nc3ccc(OCc4ccccn4)c(Cl)c3)c2cc1NC(=O)/C=C/[C@H]1CCCN1C.O=C(O)C[C@H](O)C(=O)O [Example 3, (E)-N-[4-[[3-chloro-4-(2-pyridylmethoxy)phenyl]amino]-3-cyano-7-ethoxy-6-quinolyl]-3-[(2R)-1-methylpyrrolidin-2-yl]prop-2-enamide L-malate]	31	–
CCOc1cc2ncc(C#N)c(Nc3ccc(OCc4ccccn4)c(Cl)c3)c2cc1NC(=O)/C=C/[C@H]1CCCN1C.Cc1ccc(S(=O)(=O)O)cc1 [Example 7, (E)-N-[4-[[3-chloro-4-(2-pyridylmethoxy)phenyl]amino]-3-cyano-7-ethoxy-6-quinolyl]-3-[(2R)-1-methylpyrrolidin-2-yl]prop-2-enamide p-toluenesulfonate]	26	–
CCOc1cc2ncc(C#N)c(Nc3ccc(OCc4ccccn4)c(Cl)c3)c2cc1NC(=O)/C=C/[C@H]1CCCN1C.O=C(O)CCC(=O)O [Example 8, (E)-N-[4-[[3-chloro-4-(2-pyridylmethoxy)phenyl]amino]-3-cyano-7-ethoxy-6-quinolyl]-3-[(2R)-1-methylpyrrolidin-2-yl]prop-2-enamide succinate]	28	–
CCOc1cc2ncc(C#N)c(Nc3ccc(OCc4ccccn4)c(Cl)c3)c2cc1NC(=O)/C=C/[C@H]1CCCN1C [Example 9, (E)-N-[4-[[3-chloro-4-(2-pyridylmethoxy)phenyl]amino]-3-cyano-7-ethoxy-6-quinolyl]-3-[(2R)-1-methylpyrrolidin-2-yl]prop-2-enamide dihydrochloride]	35	–
